Assays:
Assay in all cases: Ki determination for immobilized VI16742: two consecutive incubations, control beads, ligand concentration and incubation time controls (Tables 7, 8)
Format in all cases: binding
[1] = biological target: cellular target proteins in HeLa cell lysate (Homo sapiens, UniProt P54619); conditions: Ki (VI16742), PRKAG1 IPI00413318
[2] = biological target: cellular target proteins in HeLa cell lysate (Homo sapiens, UniProt Q86YS7); conditions: Ki (VI16742), KIAA0528 IPI00783895
[3] = biological target: cellular target proteins in HeLa cell lysate (Homo sapiens, UniProt O96013); conditions: Ki (VI16742), PAK4 IPI00014068
[4] = biological target: T1, cellular target proteins in HeLa cell lysate (Homo sapiens, UniProt O94806); conditions: Ki (VI16742), PKD3 (PRKD3) IPI00015538
T1 sequence (O94806 1-890): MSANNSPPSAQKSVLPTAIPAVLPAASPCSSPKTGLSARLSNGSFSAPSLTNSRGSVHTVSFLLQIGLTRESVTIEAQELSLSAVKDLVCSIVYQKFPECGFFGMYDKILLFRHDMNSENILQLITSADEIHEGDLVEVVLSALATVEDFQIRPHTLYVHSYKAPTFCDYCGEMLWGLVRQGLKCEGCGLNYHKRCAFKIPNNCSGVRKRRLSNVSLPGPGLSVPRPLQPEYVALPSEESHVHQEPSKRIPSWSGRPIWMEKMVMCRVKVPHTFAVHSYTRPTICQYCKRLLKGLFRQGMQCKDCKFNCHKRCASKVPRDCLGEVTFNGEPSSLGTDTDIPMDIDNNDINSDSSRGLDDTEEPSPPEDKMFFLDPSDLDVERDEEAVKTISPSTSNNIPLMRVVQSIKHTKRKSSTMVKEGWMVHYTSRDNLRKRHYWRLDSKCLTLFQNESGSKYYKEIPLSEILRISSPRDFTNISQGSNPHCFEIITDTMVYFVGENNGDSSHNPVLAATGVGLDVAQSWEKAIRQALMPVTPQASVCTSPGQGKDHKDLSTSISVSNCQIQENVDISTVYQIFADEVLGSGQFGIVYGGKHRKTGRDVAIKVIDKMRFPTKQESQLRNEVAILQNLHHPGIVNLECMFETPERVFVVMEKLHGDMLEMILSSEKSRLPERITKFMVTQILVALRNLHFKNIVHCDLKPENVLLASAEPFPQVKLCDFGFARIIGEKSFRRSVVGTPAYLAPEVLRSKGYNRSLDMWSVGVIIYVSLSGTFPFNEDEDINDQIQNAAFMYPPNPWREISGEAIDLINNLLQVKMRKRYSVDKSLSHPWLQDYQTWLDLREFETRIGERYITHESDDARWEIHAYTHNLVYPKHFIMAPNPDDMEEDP

The chains behind the UniProt entries cited, without tags or fusion partners. Where a name states a change or a piece, a line headed by the entry shows the natural chain unless it says otherwise.
UniProt P54619: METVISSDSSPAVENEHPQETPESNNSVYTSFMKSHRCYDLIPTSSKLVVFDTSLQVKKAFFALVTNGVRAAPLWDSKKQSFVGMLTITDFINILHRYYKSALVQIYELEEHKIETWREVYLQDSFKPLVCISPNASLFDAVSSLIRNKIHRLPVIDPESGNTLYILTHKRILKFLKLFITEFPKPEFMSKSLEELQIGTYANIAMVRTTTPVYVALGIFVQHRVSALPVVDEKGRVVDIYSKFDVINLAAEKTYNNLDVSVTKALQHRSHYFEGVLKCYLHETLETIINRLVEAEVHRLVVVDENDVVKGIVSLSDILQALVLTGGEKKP
UniProt Q86YS7: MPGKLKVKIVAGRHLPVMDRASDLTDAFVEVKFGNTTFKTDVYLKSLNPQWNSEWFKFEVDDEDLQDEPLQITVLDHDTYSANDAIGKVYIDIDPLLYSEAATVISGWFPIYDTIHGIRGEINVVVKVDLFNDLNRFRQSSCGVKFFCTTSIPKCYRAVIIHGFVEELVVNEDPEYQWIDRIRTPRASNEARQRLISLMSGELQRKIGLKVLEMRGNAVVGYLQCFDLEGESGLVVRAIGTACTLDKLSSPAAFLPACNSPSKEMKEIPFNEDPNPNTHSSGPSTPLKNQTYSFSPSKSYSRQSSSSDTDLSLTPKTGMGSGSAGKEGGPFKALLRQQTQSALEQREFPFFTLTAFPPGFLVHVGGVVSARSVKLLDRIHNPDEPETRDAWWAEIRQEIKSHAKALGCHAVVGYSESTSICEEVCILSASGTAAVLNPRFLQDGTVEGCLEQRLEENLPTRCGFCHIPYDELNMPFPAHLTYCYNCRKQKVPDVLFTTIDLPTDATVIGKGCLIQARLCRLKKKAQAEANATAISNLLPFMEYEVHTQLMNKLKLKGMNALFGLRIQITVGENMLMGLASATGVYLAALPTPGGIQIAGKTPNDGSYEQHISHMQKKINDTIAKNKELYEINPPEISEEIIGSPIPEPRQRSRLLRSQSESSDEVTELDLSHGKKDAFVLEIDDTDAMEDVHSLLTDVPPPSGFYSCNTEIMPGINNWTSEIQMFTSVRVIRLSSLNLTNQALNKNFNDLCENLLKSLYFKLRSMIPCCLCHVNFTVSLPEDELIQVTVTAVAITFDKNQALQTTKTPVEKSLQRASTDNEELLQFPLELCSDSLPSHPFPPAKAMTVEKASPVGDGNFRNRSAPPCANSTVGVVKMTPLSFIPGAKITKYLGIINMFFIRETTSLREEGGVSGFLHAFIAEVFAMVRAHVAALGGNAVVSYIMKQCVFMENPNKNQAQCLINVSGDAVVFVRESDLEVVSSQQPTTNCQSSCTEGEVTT
UniProt O96013: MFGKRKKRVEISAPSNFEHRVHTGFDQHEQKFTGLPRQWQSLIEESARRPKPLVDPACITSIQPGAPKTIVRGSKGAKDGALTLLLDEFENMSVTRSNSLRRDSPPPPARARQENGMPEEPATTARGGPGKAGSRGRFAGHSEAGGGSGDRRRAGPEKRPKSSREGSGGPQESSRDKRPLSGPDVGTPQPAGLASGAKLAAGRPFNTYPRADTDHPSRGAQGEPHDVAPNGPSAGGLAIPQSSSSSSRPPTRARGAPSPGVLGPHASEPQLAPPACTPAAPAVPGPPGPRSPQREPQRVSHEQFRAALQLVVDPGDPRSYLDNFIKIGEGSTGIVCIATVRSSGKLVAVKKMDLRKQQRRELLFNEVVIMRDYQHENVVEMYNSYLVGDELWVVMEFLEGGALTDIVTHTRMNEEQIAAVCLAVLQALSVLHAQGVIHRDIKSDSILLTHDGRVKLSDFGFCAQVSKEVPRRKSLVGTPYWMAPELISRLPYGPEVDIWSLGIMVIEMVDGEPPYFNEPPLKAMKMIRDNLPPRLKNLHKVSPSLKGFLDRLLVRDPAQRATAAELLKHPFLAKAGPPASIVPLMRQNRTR
UniProt P67870, whole entry: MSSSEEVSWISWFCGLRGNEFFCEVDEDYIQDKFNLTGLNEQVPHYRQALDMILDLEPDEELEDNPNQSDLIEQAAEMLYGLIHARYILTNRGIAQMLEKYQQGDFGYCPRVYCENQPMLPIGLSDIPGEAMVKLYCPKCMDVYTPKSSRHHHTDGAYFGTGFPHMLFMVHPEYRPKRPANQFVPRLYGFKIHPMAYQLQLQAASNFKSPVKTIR
UniProt P50613: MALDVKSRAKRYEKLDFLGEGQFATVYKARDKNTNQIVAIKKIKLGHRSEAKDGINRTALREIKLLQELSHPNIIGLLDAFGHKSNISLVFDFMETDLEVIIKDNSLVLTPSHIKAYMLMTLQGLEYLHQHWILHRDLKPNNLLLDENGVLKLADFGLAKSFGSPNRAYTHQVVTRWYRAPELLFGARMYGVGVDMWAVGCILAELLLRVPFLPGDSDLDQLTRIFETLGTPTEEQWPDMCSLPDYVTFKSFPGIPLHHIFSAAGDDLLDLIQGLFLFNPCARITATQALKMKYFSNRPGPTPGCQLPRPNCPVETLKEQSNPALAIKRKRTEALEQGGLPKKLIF
UniProt P28482, whole entry: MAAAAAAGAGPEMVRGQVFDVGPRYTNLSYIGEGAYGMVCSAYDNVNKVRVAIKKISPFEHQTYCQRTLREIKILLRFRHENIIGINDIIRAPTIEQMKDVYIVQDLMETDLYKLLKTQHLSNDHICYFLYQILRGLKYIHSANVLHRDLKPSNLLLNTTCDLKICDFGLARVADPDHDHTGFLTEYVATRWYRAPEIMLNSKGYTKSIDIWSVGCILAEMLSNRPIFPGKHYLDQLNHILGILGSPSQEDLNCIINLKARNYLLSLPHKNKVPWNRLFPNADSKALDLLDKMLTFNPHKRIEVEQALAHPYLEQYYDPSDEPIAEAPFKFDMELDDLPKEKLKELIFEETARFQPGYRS

[5] = biological target: cellular target proteins in HeLa cell lysate (Homo sapiens, UniProt P67870); conditions: Ki (VI16742), CSNK2B IPI00640088
[6] = biological target: cellular target proteins in HeLa cell lysate (Homo sapiens, UniProt P50613); conditions: Ki (VI16742), CDK7 IPI00000685
[7] = biological target: cellular target proteins in HeLa cell lysate (Homo sapiens, UniProt P28482); conditions: Ki (VI16742), Erk2 (MAPK1) IPI00003479

## CC(C)n1c(=O)ccc2cnc(Nc3ccc(OCCN)cc3)nc21 [V16742]
[1]
  Ki: 17.9 µM
[2]
  Ki: 29.9 µM
[3]
  Ki: 46.3 µM
[4]
  Ki: 4.01 µM
[5]
  Ki: 10.9 µM
[6]
  Ki: 46.2 µM
[7]
  Ki: 23.2 µM
